{
  "sequences": {"note": "Amino acid sequences for entries named in this document (tags omitted).", "UniProt P20309, whole entry, looked up": "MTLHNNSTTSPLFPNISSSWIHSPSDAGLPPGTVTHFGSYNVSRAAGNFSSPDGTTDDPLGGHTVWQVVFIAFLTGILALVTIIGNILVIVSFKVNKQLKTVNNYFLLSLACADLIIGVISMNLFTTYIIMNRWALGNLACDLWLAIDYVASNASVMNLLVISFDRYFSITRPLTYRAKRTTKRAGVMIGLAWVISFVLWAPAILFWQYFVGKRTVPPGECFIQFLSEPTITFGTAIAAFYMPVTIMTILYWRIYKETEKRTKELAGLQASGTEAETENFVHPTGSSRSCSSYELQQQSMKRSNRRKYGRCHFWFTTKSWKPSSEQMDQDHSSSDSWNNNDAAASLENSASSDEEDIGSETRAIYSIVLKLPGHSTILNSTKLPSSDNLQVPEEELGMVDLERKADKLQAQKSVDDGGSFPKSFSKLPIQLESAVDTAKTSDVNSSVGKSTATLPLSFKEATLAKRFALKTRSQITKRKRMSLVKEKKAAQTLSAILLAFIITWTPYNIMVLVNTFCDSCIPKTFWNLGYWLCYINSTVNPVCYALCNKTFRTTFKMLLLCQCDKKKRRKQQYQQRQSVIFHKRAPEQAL"},
  "source": "patent US10307355B2",
  "about": "“N-aralkylcarbonyldiamine compounds and personal care compositions comprising the same” (Conopco, Inc., priority 2015, dated 2019)",
  "key": {"human M3 receptor": {"molecular_target": "human M3 receptor (Homo sapiens, UniProt P20309)", "test": "Muscarinic 3 receptor binding assay (3H-scopolamine displacement, CHO cell membranes)", "conditions": "inhibition of 3H-scopolamine binding to CHO cell suspension expressing the human M3 receptor"}, "[1]": {"system": "human living skin equivalents", "test": "Ki-67 assay using human living skin equivalents (cell proliferation)", "conditions": "1 μM, dosed once per day for 4 d; vehicle 0.1% DMSO; P-value 0.005"}},
  "data": [
    {"smiles": "CN(C)CCN(C)C(=O)C(O)(c1ccccc1)C1CCCCC1", "note": "(stereo not shown)", "values": [
      {"measurement": "IC50", "setting": "human M3 receptor", "result": 650, "unit": "nM"}
    ]},
    {"smiles": "CN(C)CCCN(C)C(=O)C(O)(c1ccccc1)C1CCCC1", "note": "(stereo not shown)", "values": [
      {"measurement": "IC50", "setting": "human M3 receptor", "result": 1500, "unit": "nM"}
    ]},
    {"smiles": "CN(C)CCN(C)C(=O)C(O)(c1ccccc1)C1CCCC1", "note": "(stereo not shown)", "values": [
      {"measurement": "% Increase in Ki-67 stained positive cells over vehicle", "setting": "[1]", "result": 72, "unit": "%"},
      {"measurement": "IC50", "setting": "human M3 receptor", "result": 440, "unit": "nM"}
    ]}
  ]
}
